Here are results for one substance from patent publication US20090238768A1, “MULTIMERIC MAGNETIC RESONANCE CONTRAST AGENTS” (priority 2005, published 2009).

This data set can be described thus: longitudinal relaxivity rl in human blood plasma at 37° C. It counts as physicochemical. As for the experimental part: Compound 23 was dissolved in human blood plasma and the longitudinal relaxivity rl was measured at 37° C. at the following fields:
Compound 7 was dissolved in human blood plasma and the longitudinal relaxivity rl was measured at 37° C. at the following fields:
Compound 13 was dissolved in human blood plasma and the longitudinal relaxivity rl was measured at 37° C. at the following fields:
Compound 36 was dissolved in human blood plasma and the longitudinal relaxivity rl was measured at 37° C. at the following fields:
Compound 40 was dissolved in human blood plasma and the longitudinal relaxivity rl was measured at 37° C. at the following fields:
Compound 43 was dissolved in human blood plasma and the longitudinal relaxivity rl was measured at 37° C. at the following fields:
Compound 46 was dissolved in human blood plasma and the longitudinal relaxivity rl was measured at 37° C. at the following fields: […]

For “gadolinium derivative of 1,3,5-Tris-(N-(DO3A-acetamido)-N-methyl-4-amino-2-methyl-phenyl)-benzene [Compound 7]”, the longitudinal relaxivity rl turned out to be 10.6 mM^1s^1 (0.47 T) and 9.4 mM^1s^1 (1.41 T). The “longitudinal relaxivity rl calculated for a field of 3 T” value (3 T, calculated from the measurements at lower fields) is given as 9 mM^1s^1.
